Molecular target: human SSTR-3 (Homo sapiens, UniProt P32745)
Experiment: Somatostatin receptor binding assay, hSSTR-3
Details: [125I-Tyr11]somatostatin-14, CHO-K1 membranes

Protein sequences, listed by entry. Tags and fused reporters are not part of them. Lines headed by an entry give the natural chain unless they say otherwise; changes in a name come on top.
UniProt P32745: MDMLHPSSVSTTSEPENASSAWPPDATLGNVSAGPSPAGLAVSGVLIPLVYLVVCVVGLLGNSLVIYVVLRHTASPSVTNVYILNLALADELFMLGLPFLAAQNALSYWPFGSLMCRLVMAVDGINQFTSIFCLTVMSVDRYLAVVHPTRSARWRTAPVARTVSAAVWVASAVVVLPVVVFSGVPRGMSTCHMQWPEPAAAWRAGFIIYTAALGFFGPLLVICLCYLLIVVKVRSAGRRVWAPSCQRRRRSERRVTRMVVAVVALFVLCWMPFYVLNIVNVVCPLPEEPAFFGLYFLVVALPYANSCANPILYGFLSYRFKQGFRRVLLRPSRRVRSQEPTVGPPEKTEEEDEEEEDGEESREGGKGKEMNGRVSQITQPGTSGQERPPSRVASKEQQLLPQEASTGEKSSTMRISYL

In the case of `C[C@@H](O)[C@@H]1NC(=O)[C@H](CCCCN)NC(=O)[C@@H](Cc2c[nH]c3ccccc23)NC(=O)[C@H](Cc2ccccc2)NC(=O)[C@H](Cc2ccccc2)NC(=O)[C@@H](N)CSSC[C@@H](C(N)=O)NC(=O)[C@H](Cc2ccccc2)NC1=O` [Example 107, H-Cys-Phe-Phe-D-Trp-Lys-Thr-Phe-Cys-NH2], the Ki is reported as 545 nM.

Reference: patent publication US5968903A, “Inhibition of H. pylori proliferation” (Biomeasure, Incorporated, priority 1998, dated 1999)
